Binding of CDR-mutated scFvs to a peptide of the spike HR2 region

Antigen: PDVDLGDISGINAS, a 14-residue peptide of the SARS-CoV-2 spike HR2 region.

The variants keep the heavy chain, the linker and the frameworks of Ab-14 (scFv order VH, a 15-residue (Gly4Ser)3 linker, VL).
VH: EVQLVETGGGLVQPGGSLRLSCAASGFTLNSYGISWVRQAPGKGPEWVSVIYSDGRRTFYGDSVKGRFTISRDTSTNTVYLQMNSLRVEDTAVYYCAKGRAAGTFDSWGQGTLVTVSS
VL: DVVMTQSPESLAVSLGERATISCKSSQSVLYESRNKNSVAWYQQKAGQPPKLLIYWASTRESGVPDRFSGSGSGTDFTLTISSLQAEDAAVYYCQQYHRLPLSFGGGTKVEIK

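Phage display of a naive human antibody library on the peptide gave the parent. The variants were designed computationally from a first round of random CDR variants and then made and measured. Group labels follow the data file (En: ensemble of fine-tuned language models; GP: Gaussian process model; HC: hill climbing; Gen: genetic algorithm; Gibbs: Gibbs sampling; a sequence that several methods proposed may carry one label only). The assay is AlphaSeq: two haploid yeast populations carry antibody and antigen on their surface. Mating (16 h, 30 °C) was followed by selection of diploids and sequencing of their barcodes. Scores were corrected for input abundance and mapped to Kd with protein pairs of known affinity run in the same pool. Mating was done six times.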

Each variant is given by its three light chain CDRs, as the data file delimits them; those of the parent are KSSQSVLYESRNKNSVA, WASTRES, QQYHRLPLS. This list holds designs with more than six substitutions. Each Kd is an estimate from the mating assay, the geometric mean of the replicates in which the pair was seen; lower is stronger. A pair that was not seen in any replicate is written "nd"; this usually means weak binding, but a binder can also be missed. Entries are sorted by rising average, undetected variants last.

- KVSMSVNYLQRNKNSVA, QASQRES, QQYHRLPLS [GP_Gibbs] = 200 pM (6 of 6 replicates; controls 0 of 18)
- KLMGSSLYDSRNKNSVA, NASTREV, QQYHRLPLS [GP_Gibbs] = 570 pM (6 of 6 replicates; controls 3 of 18)
- KLSQSHLYESRNVNNVA, EASYRMD, QQYHRLPLS [GP_Gibbs] = 700 pM (6 of 6 replicates; controls 0 of 18)
- GIQSQMVGTSAVKENIA, NEAERLE, QQYQRLPLT [En_Gibbs] = 760 pM (6 of 6 replicates; controls 0 of 18)
- QLNEYKHETMAKTQNIA, DMTIRED, QQYAHLPLA [En_Gibbs] = 760 pM (6 of 6 replicates; controls 0 of 18)
- KLMNSMLYESRNVNSVA, NASRRES, QQYHRLPLS [GP_Gibbs] = 820 pM (6 of 6 replicates; controls 1 of 18)
- KLTMVTGTEKVRGNNVA, EMETREN, QQYNRLPLA [En_Gen] = 840 pM (6 of 6 replicates; controls 1 of 18)
- KLMMSGLYESRNSNSVA, NASYREQ, QQYHRLPLS [GP_Gibbs] = 950 pM (6 of 6 replicates; controls 0 of 18)
- KLMQSDLYESRMKNNVA, DASTRME, QQYHRLPLS [GP_Gibbs] = 1.1 nM (6 of 6 replicates; controls 0 of 18)
- QLQIEPNGYMGMRNNVA, DGGMVRM, QQYARLPLM [En_Gibbs] = 1.1 nM (6 of 6 replicates; controls 0 of 18)
- KVSQEMLYESRMINSVA, NASQRES, QQYHRLPLS [GP_Gibbs] = 1.1 nM (6 of 6 replicates; controls 1 of 18)
- KISMMVDYMSATHSSVA, QTSTREE, QQYHRLPLS [En_HC] = 1.5 nM (6 of 6 replicates; controls 0 of 18)
- KQSQSELYGSRNKNSVA, DASQRED, QDYHRLPLS [GP_Gibbs] = 1.5 nM (6 of 6 replicates; controls 2 of 18)
- KLSQSVLYQMQQKNSVA, QASTRMS, QQYHRLPLS [GP_Gibbs] = 1.7 nM (6 of 6 replicates; controls 1 of 18)
- HLSDTSMQGSYYRNSVA, QESTRAD, QQYHRLPLS [En_HC] = 1.7 nM (6 of 6 replicates; controls 0 of 18)
- KIYQAMHTLSQHKDNVA, DVNERGS, QQYFRLPLS [En_Gen] = 1.9 nM (6 of 6 replicates; controls 0 of 18)
- KLSQSVLYQMEMKNSVA, QAVTRMS, QQYHRLPLS [GP_Gibbs] = 1.9 nM (6 of 6 replicates; controls 1 of 18)
- KAPQSMWYESRNQNSVA, QASTRSQ, QQYHRLPLQ [GP_Gibbs] = 1.9 nM (6 of 6 replicates; controls 0 of 18)
- TISSVMNHMTRIENNVA, NQDMREA, QQYDRLPLS [En_Gen] = 2.3 nM (6 of 6 replicates; controls 0 of 18)
- MFDQHTMEEMDKNNAVA, EVTHLVN, QQYAQLPLI [En_Gibbs] = 2.6 nM (6 of 6 replicates; controls 1 of 18)
- KIGMTLNQLMHKKNNVA, DLVTRET, QQYFRLPLS [En_Gen] = 2.7 nM (6 of 6 replicates; controls 0 of 18)
- KVSQSELGQERNKMSVA, QASTRED, QQYHRLPLS [GP_Gibbs] = 2.9 nM (6 of 6 replicates; controls 1 of 18)
- MMSQVTGYGQRQRNNVA, QTSTRED, QQYDRLPLI [En_Gen] = 3.0 nM (6 of 6 replicates; controls 0 of 18)
- WLSMSVEQQSRNKNAVA, SASTREL, QQYHRLPLS [GP_Gibbs] = 4.6 nM (6 of 6 replicates; controls 0 of 18)
- KISGYLNHESKNKNSVA, EMVNRES, QQYDRLPLS [En_HC] = 5.0 nM (6 of 6 replicates; controls 2 of 18)
- NISQMFLMETKHVNNVA, QTSTRES, QDYHRLPLS [En_HC] = 5.7 nM (6 of 6 replicates; controls 1 of 18)
- KLPLATMVESVSKNNVA, ELSTRGS, QQYNRLPLS [En_HC] = 5.9 nM (6 of 6 replicates; controls 1 of 18)
- MVTQMAMTGMMSKRSVA, NATTRES, QQYHRLPLI [En_Gen] = 10 nM (6 of 6 replicates; controls 0 of 18)
- IVSQLMLWGMHAKNSIA, EAETRLN, QQYDRLPLF [En_Gen] = 10 nM (6 of 6 replicates; controls 0 of 18)
- MFSQLTYTGSKARNAVA, QAETRVN, QQYHHLPLI [En_HC] = 11 nM (6 of 6 replicates; controls 2 of 18)
- MVTLQLRPGHETQNPIA, EASHRAA, QQYAHLPLG [En_Gibbs] = 11 nM (6 of 6 replicates; controls 1 of 18)
- TISQVMNTLSRQGNNVA, DLAERER, QQYFRLPLS [En_Gen] = 11 nM (6 of 6 replicates; controls 1 of 18)
- SLMDNIWVEDTYRNAIA, DRNVRAK, QQYHLLPLS [En_Gibbs] = 14 nM (6 of 6 replicates; controls 0 of 18)
- IVSQLMLWGLHAKNSIA, EAEMRLN, QQYDRLPLF [En_Gen] = 15 nM (2 of 6 replicates; controls 0 of 18)
- HIDIINRGEDLKQDPIA, QADHREQ, QQYFHLPLA [En_Gibbs] = 16 nM (6 of 6 replicates; controls 2 of 18)
- KLSQVTGHMQIEKNNVA, EMETREN, QQYDRLPLS [En_Gen] = 16 nM (6 of 6 replicates; controls 1 of 18)
- QLSQVTHSESRNKNSIA, EMVTREV, QQYDRLPLS [En_HC] = 20 nM (6 of 6 replicates; controls 0 of 18)
- ILSQSVLMGMHTKNSVA, QASMRFN, QQYDRLPLM [En_HC] = 24 nM (6 of 6 replicates; controls 0 of 18)
- KIRWQQYSQSEMEDNIA, QESTRHQ, QQYFRLPLS [En_Gibbs] = 39 nM (3 of 6 replicates; controls 0 of 18)
- TLMYAGEWEGENKKSVA, NAIIKNE, QQYVRLPLA [En_Gibbs] = 40 nM (5 of 6 replicates; controls 0 of 18)
- KLSMMYRYESQEKNSIA, EMSTREE, QSYHRLPLS [En_HC] = 45 nM (6 of 6 replicates; controls 0 of 18)
- MISDLMLYGSRNKNPIA, NASTREY, QQYHRLPLE [En_HC] = 55 nM (6 of 6 replicates; controls 0 of 18)
- HLSLRLSYGNMLQNAVA, EVQARMT, QQYARLPLL [En_Gibbs] = 61 nM (1 of 6 replicates; controls 0 of 18)
- KITGMWTFESHNRSNIA, EESTRED, QSYHRLPLS [En_HC] = 76 nM (5 of 6 replicates; controls 2 of 18)
- KLMSHEWHGTARNSAMA, NAQVSHD, QQYSRLPLA [En_Gibbs] = 140 nM (6 of 6 replicates; controls 0 of 18)
- HLGLATMLEEQVRNSVA, NNSTRED, QQYDRLPLS [En_Gen] = 150 nM (5 of 6 replicates; controls 1 of 18)
- KLREVQHVETKQKNNVA, DNSTRES, QDYHRLPLS [En_HC] = 180 nM (6 of 6 replicates; controls 3 of 18)
- SLMNLMGGIEEMKNSIA, NQETGMR, QQYAHLPLV [En_Gibbs] = 210 nM (2 of 6 replicates; controls 1 of 18)
- TLGQVTMQLSVNKNSVA, DANTSED, QQYDRLPLS [En_HC] = nd (0 of 6 replicates; controls 0 of 18)
- SLSEMEAGRDAANKSIA, AKQLMME, QQYHRLPLA [En_Gibbs] = nd (0 of 6 replicates; controls 1 of 18)

Picked from the list: the 3 lowest averages where every replicate gave a value.

* KVSMSVNYLQRNKNSVA, QASQRES, QQYHRLPLS [GP_Gibbs] -> 200 pM (6 of 6 replicates; controls 0 of 18)
* KLMGSSLYDSRNKNSVA, NASTREV, QQYHRLPLS [GP_Gibbs] -> 570 pM (6 of 6 replicates; controls 3 of 18)
* KLSQSHLYESRNVNNVA, EASYRMD, QQYHRLPLS [GP_Gibbs] -> 700 pM (6 of 6 replicates; controls 0 of 18)

A sequence measured in both rounds can read differently, since the two assays cover different ranges. The authors' rule: three or more of the six replicates give a measured affinity, fewer mean a poor binder. Background: pairings of all light chain designs with three empty control strains gave a value in 4% of cases (median 430 nM, 5th percentile 38 nM). Values in that range, when seen in few replicates, are hard to tell from nonspecific mating. For each scFv, signals with the empty controls are counted beside the result.

Values reported by Li et al. 2023, doi:10.1038/s41467-023-39022-2 (FLAb copy).